Target: Poly [ADP-ribose] polymerase 1 (Homo sapiens, UniProt P09874)
Assay: Inhibitory concentration against purified recombinant human Poly (ADP-ribose) polymerase 1

Protein sequences, listed by entry. Tags and fused reporters are not part of them.
UniProt P09874, whole entry: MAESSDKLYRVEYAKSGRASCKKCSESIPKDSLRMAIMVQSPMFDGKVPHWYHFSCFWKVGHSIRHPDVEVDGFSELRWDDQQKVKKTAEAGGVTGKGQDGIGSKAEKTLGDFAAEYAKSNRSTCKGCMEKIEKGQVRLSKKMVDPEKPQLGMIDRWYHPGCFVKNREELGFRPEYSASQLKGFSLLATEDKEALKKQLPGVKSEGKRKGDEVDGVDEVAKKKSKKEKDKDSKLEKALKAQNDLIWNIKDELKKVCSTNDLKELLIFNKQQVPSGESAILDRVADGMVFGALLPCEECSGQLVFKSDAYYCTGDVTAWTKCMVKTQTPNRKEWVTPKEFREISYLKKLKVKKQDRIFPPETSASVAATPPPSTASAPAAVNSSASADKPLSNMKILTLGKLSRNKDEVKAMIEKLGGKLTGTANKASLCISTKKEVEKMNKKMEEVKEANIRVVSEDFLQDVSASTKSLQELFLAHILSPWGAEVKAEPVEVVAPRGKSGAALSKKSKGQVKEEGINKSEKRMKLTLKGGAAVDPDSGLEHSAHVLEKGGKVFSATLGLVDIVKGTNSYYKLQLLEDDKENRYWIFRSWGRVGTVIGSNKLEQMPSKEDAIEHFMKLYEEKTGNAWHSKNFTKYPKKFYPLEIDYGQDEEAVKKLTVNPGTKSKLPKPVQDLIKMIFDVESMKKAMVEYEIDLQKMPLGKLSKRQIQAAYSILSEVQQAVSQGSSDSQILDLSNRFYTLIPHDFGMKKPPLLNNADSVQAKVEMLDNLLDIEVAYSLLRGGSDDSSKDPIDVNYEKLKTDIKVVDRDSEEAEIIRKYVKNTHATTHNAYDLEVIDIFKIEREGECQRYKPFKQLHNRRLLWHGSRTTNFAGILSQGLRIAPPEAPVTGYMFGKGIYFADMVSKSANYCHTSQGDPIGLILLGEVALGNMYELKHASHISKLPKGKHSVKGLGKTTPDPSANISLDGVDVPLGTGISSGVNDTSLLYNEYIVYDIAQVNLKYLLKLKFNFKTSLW

- IC50: 240 nM
SMILES: Oc1nc2cc(Cl)ccc2c2ccc(Cl)cc12

— ChEMBL document CHEMBL1134117, “Synthesis of substituted 5[H]phenanthridin-6-ones as potent poly(ADP-ribose)polymerase-1 (PARP1) inhibitors” (Bioorg Med Chem Lett, 2001)
